Source: US10266537B2, “3-acetylenyl-pyrazole-pyrimidine derivative, and preparation method therefor and uses thereof” (Si Chuan University, priority 2015, dated 2019)

Protein sequences, listed by entry. Tags and fused reporters are not part of them. Lines headed by an entry give the natural chain unless they say otherwise; changes in a name come on top. Residues count along the entry.
UniProt P04629, 33-796: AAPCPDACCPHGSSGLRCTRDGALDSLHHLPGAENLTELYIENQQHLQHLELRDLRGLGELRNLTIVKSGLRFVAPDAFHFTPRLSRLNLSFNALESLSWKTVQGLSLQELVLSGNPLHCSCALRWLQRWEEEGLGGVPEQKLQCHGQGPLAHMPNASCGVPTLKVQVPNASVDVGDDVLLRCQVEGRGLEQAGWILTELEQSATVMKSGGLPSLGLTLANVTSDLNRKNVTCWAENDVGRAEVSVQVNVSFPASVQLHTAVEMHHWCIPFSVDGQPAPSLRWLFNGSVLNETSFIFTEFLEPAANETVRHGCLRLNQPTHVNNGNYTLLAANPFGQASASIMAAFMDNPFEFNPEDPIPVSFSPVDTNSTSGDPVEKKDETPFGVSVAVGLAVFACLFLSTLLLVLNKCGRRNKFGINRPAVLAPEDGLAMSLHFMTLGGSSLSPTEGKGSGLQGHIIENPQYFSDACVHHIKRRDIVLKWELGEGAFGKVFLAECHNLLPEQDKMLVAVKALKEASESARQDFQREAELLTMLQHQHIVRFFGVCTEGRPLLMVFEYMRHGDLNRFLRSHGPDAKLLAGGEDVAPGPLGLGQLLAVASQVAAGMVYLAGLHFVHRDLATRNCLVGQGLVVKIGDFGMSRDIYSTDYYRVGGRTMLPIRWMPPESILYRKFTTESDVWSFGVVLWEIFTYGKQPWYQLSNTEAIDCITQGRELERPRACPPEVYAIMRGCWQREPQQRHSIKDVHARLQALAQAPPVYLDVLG
UniProt P42685: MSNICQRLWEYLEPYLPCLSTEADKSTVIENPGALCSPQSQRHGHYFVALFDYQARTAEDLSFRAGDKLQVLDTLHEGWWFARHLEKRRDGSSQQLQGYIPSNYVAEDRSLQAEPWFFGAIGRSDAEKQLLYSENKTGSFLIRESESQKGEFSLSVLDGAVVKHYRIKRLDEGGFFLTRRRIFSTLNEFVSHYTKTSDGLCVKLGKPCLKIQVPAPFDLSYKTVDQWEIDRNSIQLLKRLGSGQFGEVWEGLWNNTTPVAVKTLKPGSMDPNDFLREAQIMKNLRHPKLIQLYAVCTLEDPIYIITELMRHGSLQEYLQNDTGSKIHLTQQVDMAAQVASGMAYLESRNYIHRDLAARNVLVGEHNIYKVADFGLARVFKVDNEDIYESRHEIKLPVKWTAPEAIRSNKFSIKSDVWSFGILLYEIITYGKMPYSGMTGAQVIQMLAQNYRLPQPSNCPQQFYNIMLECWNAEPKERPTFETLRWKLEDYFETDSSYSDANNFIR

Key:
TrkA = TrkA (Homo sapiens (Human), UniProt P04629); assay: Kinase inhibition assay (KinaseProfiler, 33P-ATP); assay type: biochemical; conditions: ATP at Km
[1] = tested on: breast cancer cell line MDA-MB-231; assay type: in vivo; conditions: nude mice, test dose range, daily oral
c-RAF = c-RAF (Homo sapiens (Human), UniProt P04049); assay: Kinase inhibition assay (KinaseProfiler, 33P-ATP); assay type: biochemical; conditions: ATP at Km
PTK5 = PTK5 (Homo sapiens (Human), UniProt P42685); assay: Kinase inhibition assay (KinaseProfiler, 33P-ATP); conditions: ATP at Km

Row | Compound | IC50 (TrkA) | toxicity / side effects (weight loss, rash, diarrhea) during administration [1] | IC50 (c-RAF) | IC50 (PTK5)
1 | CCn1nc(C#Cc2cc(C(=O)Nc3ccc(CN4CCN(C)CC4)c(C(F)(F)F)c3)ccc2C)c2c(N)ncnc21 [Compound 3] | 27 nM | low toxicity | 27 nM | –
2 | Cc1ccc(NC(=O)c2ccc(C)c(C(F)(F)F)c2)cc1C#Cc1nn([C@H]2CC[C@H](O)CC2)c2ncnc(N)c12 [Compound 93] | – | – | – | 19 nM
